The list shows a part of the results.
The compounds below were run on A. baumannii ATCC 17978 (assay: relative growth (fraction of control); higher = less inhibition). Settings: 50 µM.
With N.N.[Cl][Pt][Cl] the relative growth was 0.904. C=CCOC(=O)[C@@H]1[C@@H](C(=O)OC)N(C)[C@@H](c2ccccc2)[C@]12C(=O)Nc1ccc(I)cc12 showed a relative growth of 1.13. CN1C[C@H](CNC(=O)OCc2ccccc2)C[C@@H]2c3cccc4c3c(cn4C)C[C@H]21 gave a relative growth of 0.978. Br.COc1ccc2c(c1)[C@]13CCCC[C@@H]1[C@H](C2)N(C)CC3 gave a relative growth of 0.675. CC[C@H]1C2CC3[C@@H]4N(C)c5ccccc5[C@]45C[C@@H](C2C5O)N3[C@@H]1O (stereo partly specified) was tested, and the relative growth was 0.904. In the case of O=C(C1CCCC1)N1C[C@@H]2CCNC[C@@H]21, the relative growth is reported as 1.03. COc1cccc(-c2ccc3c(CCN)c[nH]c3c2)c1 was tested, and the relative growth was 0.741. For CCC[C@@H](CN)c1ccc(F)cc1, the relative growth was 0.883. With N#C[C@@]12[C@H]3CC=C[C@@H]1N2CC3 (stereo partly specified) the relative growth was 0.957. COc1cc2c(c(OC)c1OC)-c1ccc(OC)c(=O)cc1[C@@H](NC(C)=O)CC2 gave a relative growth of 1.13. In the case of CC1(C)NN1CCCN1NC1(C)C (stereo unspecified), the relative growth is reported as 0.996. C(=N/C12CN3CN(CN(C3)C1)C2)/c1cccnc1 gave a relative growth of 0.964. Compound O.O=c1ccc2cc(O[C@@H]3O[C@H](CO)[C@@H](O)[C@H](O)[C@H]3O)c(O)cc2o1 has a relative growth of 1.13. Compound CC(=O)OCC1=C(C(=O)[O-])N2C(=O)[C@@H](NC(=O)CCCC(N)C(=O)[O-])C2SC1.[Zn+2] (stereo partly specified) has a relative growth of 0.901. In the case of Cc1c[nH]cn1, the relative growth is reported as 0.898. Work on CC[C@]12C=CCN3CC[C@@]4(c5ccc(OC)cc5N(C)C4[C@@](O)(C(=O)OC)[C@@H]1OC(C)=O)[C@@H]32 (stereo partly specified) yielded a relative growth of 1.15. With CN1C2CCC1CC(OC(=O)C(CO)c1ccccc1)C2.O=S(=O)(O)O (stereo unspecified) the relative growth was 0.982. Work on CC1=C2C(=CO[C@H](C)[C@H]2C)C(O)=C(C(=O)O)C1=O yielded a relative growth of 0.843. With C[C@H]1CN([C@@H](C)CO)C(=O)CCCn2nncc2CO[C@@H]1CN(C)C(=O)Oc1cccc2ccccc12 the relative growth was 0.988. In the case of N#Cc1c(Cl)c(Cl)c(Cl)c(C#N)c1Cl, the relative growth is reported as 1.08. C[C@]12[C@H](O)CC3C(CC[C@@H]4C[C@@H](O)CC[C@]34C)[C@@]1(O)CC[C@@H]2C1=CC(=O)OC1 (stereo partly specified) was tested, and the relative growth was 0.913. CNC(=O)Oc1ccc2c(c1)[C@]1(C)CCN(C)[C@@H]1N2C.O=C(O)c1ccccc1O was tested, and the relative growth was 0.89. CC(C)=CCCC1(C)C=Cc2c(O)c3c(c(CC=C(C)C)c2O1)OC12C(=CC4CC1C(C)(C)OC2(C/C=C(/C)C(=O)O)C4=O)C3=O (stereo unspecified) gave a relative growth of 0.895. C=C1CC2C(CC[C@]3(C)C(=O)CCC23)[C@@]2(C)C=CC(=O)C=C12 (stereo partly specified) showed a relative growth of 1.04. In the case of N#Cc1nn(-c2c(Cl)cc(C(F)(F)F)cc2Cl)c(N)c1S(=O)C(F)(F)F (stereo unspecified), the relative growth is reported as 0.98. C=CCOC(Cn1ccnc1)c1ccc(Cl)cc1Cl.O=S(=O)(O)O (stereo unspecified) showed a relative growth of 0.829. NCCN1CCN(c2ccc(F)cc2)CC1 was tested, and the relative growth was 1.03. With CN[C@@H](C)[C@H](O)c1ccccc1.Cl the relative growth was 0.968. Work on C=C[C@H]1[C@H](O[C@@H]2O[C@H](CO)[C@@H](O)[C@H](O)[C@H]2O)OC=C2C(=O)OCC[C@H]21 yielded a relative growth of 0.983. With c1ccc2c(c1)Nc1ccccc1S2 the relative growth was 0.946. Work on O[C@H]1[C@H]2[C@H](O)CCCN2C[C@H]1O yielded a relative growth of 1.13. Work on COc1ccc([C@@H](CN)C(C)C)cc1OC yielded a relative growth of 0.928. Work on Cc1ccc(/N=C/N(C)/C=N/c2ccc(C)cc2C)c(C)c1 yielded a relative growth of 1.03. C[C@]12CCC(=O)C[C@@H]1CC[C@@H]1[C@@H]2CC[C@]2(C)C(=O)CC[C@@H]12 [5alpha-ANDROSTAN-3,17-DIONE] gave a relative growth of 0.971. COC(=O)[C@]1(Cc2ccccc2N=[N+]=[N-])N=C(c2ccc(OCCCO)cc2)O[C@@H]1c1ccccc1N=[N+]=[N-] gave a relative growth of 1.27. CC(C)N(CCC(C(N)=O)(c1ccccc1)c1ccccn1)C(C)C.O=P(O)(O)O (stereo unspecified) gave a relative growth of 1.18. With CNC(=O)CSP(=S)(OC)OC the relative growth was 1.07. With COc1cc2c(cc1O)CCNC2C (stereo unspecified) the relative growth was 1.26. In the case of CC(=O)[O][Pb][O]C(C)=O, the relative growth is reported as 0.9. For N#CCCN.O=C(O)/C=C/C(=O)O, the relative growth was 0.936. Work on CP(=O)(O)C1=CCNCC1 yielded a relative growth of 0.999. O=c1n(Cl)c(=O)n(Cl)c(=O)n1Cl was tested, and the relative growth was 0.964. N#CC(c1ccccc1)c1ccccc1 showed a relative growth of 0.676. Compound O=C1NC(=S)NC(=O)C1c1ccccc1 has a relative growth of 0.838. O=C1CC2OCC=C3CN4CC[C@]56c7ccccc7N1C5[C@H]2[C@H]3CC46.O=S(=O)(O)O (stereo partly specified) was tested, and the relative growth was 0.602. COP(=O)(OC)C(O)C(Cl)(Cl)Cl (stereo unspecified) showed a relative growth of 0.94. C=CCc1ccc2c(c1)OCO2 gave a relative growth of 0.939. O=C1NC(=O)C(=C[C@@H]2CC=CCC2)C(=O)N1 showed a relative growth of 0.956. CC(C)[C@]12O[C@H]1[C@@H]1O[C@]13[C@]1(O[C@H]1C[C@H]1C4=C(CC[C@@]13C)C(=O)OC4)[C@@H]2O was tested, and the relative growth was 0.982. CC(=O)N[C@H]1C(=O)NC(=S)N(c2ccccc2)C1=O gave a relative growth of 1.13. Work on C[C@@H]1NC[C@@H]2CCCN2C1=O yielded a relative growth of 1.08. Work on CCC(COC(=O)c1cc(OC)c(OC)c(OC)c1)(c1ccccc1)N(C)C.O=C(O)/C=C\C(=O)O (stereo unspecified) yielded a relative growth of 1. S=C=NCc1ccccc1 showed a relative growth of 0.765. Work on COP(=O)(OC)OC=C(Cl)Cl yielded a relative growth of 0.979. Work on Cn1cc([C@@H](O)c2ccccc2)[n+](C)c1 yielded a relative growth of 0.932. Work on Nc1ccc(Cl)cc1Cl yielded a relative growth of 0.948. For CCC1(c2ccccc2)C(=O)NC(=O)NC1=O, the relative growth was 1.08. Cc1cccc(C)c1NC(=O)CN1CCCC1=O showed a relative growth of 1.17. With NNc1ccn([C@H]2O[C@@H](CO)[C@@H](O)[C@@H]2O)c(=O)n1 the relative growth was 0.942. CCC(C)[C@H]1O[C@]2(C=C[C@@H]1C)C[C@@H]1C[C@@H](C/C=C(\C)[C@@H](OC3C[C@H](OC)C(O[C@H]4C[C@H](OC)[C@@H](O)[C@H](C)O4)[C@H](C)O3)[C@@H](C)/C=C/C=C3\CO[C@@H]4[C@H](O)C(C)=C[C@@H](C(=O)O1)[C@]34O)O2 (stereo partly specified) [ABAMECTIN (avermectin B1a shown)] gave a relative growth of 0.83. CN(C)C(=O)Oc1cccc([N+](C)(C)C)c1.[Br-] showed a relative growth of 1.02. CC(C)c1ccc2[nH]c(=O)c(CCN)cc2c1 was tested, and the relative growth was 1.02. CC1(C)C2CC(=O)[C@]3(C)C(CC[C@@]4(C)[C@H](c5ccoc5)OC(=O)C5OC543)[C@@]2(C)[C@@H](O)C[C@H]1O (stereo partly specified) was tested, and the relative growth was 1.21. In the case of CCOC(=O)C1C(C=C(C)C)C1(C)C (stereo unspecified), the relative growth is reported as 0.995. Work on COC1=C[C@@H]2[C@@H]3Cc4ccc(OC)c(O)c4[C@]2(CCN3C)CC1=O yielded a relative growth of 0.998. CN[C@@H]1[C@@H](O)C(OC2[C@@H](N)C[C@@H](N)[C@H](O[C@H]3O[C@H](C(C)O)[C@@H](O)[C@H](O)[C@H]3N)[C@H]2O)OC[C@]1(C)O (stereo partly specified) showed a relative growth of 0.121.

From published antibiotic growth screens (doi:10.1038/s41589-023-01349-8)
